Data published in publication PMC2812024 (Journal of medicinal chemistry, 2008).

Molecular target: δ-opioid receptors (Rattus norvegicus, UniProt P33533)
Assay: Competitive binding, rat brain P2 synaptosomal membranes, [3H]deltorphin II
Parameters: species or system Sprague-Dawley rats
Details: read-out: KD of radioligand; radioligand for δ-opioid receptors

Substance: H-Tyr-D-Ala-Phe-Asp-Val-Val-Gly-NH2 (YAFDVVG) [[^3H]deltorphin II]
- pKd: 8.85

pKd: −log10 of the molar value.
